According to US11185076B2 (priority 2017, dated 2021):

These compounds were tested on cucumber powdery mildew (Sphaerotheca cucurbitae) (assay: Control test on cucumber powdery mildew (spray test), Test Example 6). Conditions: 50 ppm, inoculated on the same day.
Assay type: in vivo

Row | SMILES | Result (control effect)
1 | O=C1CCc2cccc3c2N1CC3 [Pyroquilon (b), pyroquilon] | B (a control value of 20 or more was evaluated as B (control effect is observed))
2 | Cc1ccc(C(=O)NC[C@@H](NC(=O)OCC(F)(F)F)C(C)C)cc1 [Tolprocarb (a), tolprocarb] | B (a control value of 20 or more was evaluated as B (control effect is observed))
3 | O=C1OCc2c(Cl)c(Cl)c(Cl)c(Cl)c21 [Fthalide (d), fthalide] | B (a control value of 20 or more was evaluated as B (control effect is observed))
4 | Cc1cccc2sc3nncn3c12 [Tricyclazole (c), tricyclazole] | A (a control value of 50 or more was evaluated as A (high control effect was observed))

Same assay, conditions: 250 ppm, inoculated on the same day

Row | SMILES | Result (control effect)
5 | C=CCOC1=NS(=O)(=O)c2ccccc21 [Probenazole (h), probenazole] | A (a control value of 50 or more was evaluated as A (high control effect was observed))
6 | CCC1(C(=O)N[C@H](C)c2ccc(Cl)cc2)C(C)C1(Cl)Cl (stereo partly drawn) [Carpropamide (e), carpropamid] | B (a control value of 20 or more was evaluated as B (control effect is observed))
7 | C[C@@H](NC(=O)C(C#N)C(C)(C)C)c1ccc(Cl)cc1Cl (stereo partly drawn) [Diclosimette (f), diclocymet] | B (a control value of 20 or more was evaluated as B (control effect is observed))
8 | CC(Oc1ccc(Cl)cc1Cl)C(=O)NC(C)(C#N)C(C)C (stereo not drawn) [Fenoxanil (g), fenoxanil] | A (a control value of 50 or more was evaluated as A (high control effect was observed))

What follows are compounds tested on cucumber powdery mildew (Pseudoperonospora cubensis) (assay: Control test on cucumber powdery mildew (spray test), Test Example 7). Conditions: 250 ppm, inoculated on the same day.
Assay type: in vivo

Row | SMILES | Result (control effect)
9 | O=C1CCc2cccc3c2N1CC3 [Pyroquilon (b), pyroquilon] | B (a control value of 20 or more was evaluated as B (control effect is observed))
10 | C=CCOC1=NS(=O)(=O)c2ccccc21 [Probenazole (h), probenazole] | B (a control value of 20 or more was evaluated as B (control effect is observed))
11 | Cc1ccc(C(=O)NC[C@@H](NC(=O)OCC(F)(F)F)C(C)C)cc1 [Tolprocarb (a), tolprocarb] | B (a control value of 20 or more was evaluated as B (control effect is observed))
12 | O=C1OCc2c(Cl)c(Cl)c(Cl)c(Cl)c21 [Fthalide (d), fthalide] | B (a control value of 20 or more was evaluated as B (control effect is observed))
13 | Cc1cccc2sc3nncn3c12 [Tricyclazole (c), tricyclazole] | B (a control value of 20 or more was evaluated as B (control effect is observed))

Each compound was assayed on cabbage black rot (Xanthomonas campestris pv. campestris) (assay: Control test on cabbage black rot (soil drench test)). Conditions: 22.5 g ai/10a, 10 days before inoculation.

Row | SMILES | Result (control effect)
14 | O=C1CCc2cccc3c2N1CC3 [Pyroquilon (b), pyroquilon] | B (a control value of 20 or more was evaluated as B (control effect was observed))
15 | Cc1ccc(C(=O)NC[C@@H](NC(=O)OCC(F)(F)F)C(C)C)cc1 [Tolprocarb (a), tolprocarb] | B (a control value of 20 or more was evaluated as B (control effect was observed))
16 | Cc1cccc2sc3nncn3c12 [Tricyclazole (c), tricyclazole] | B (a control value of 20 or more was evaluated as B (control effect was observed))

Same assay, conditions: 45 g ai/10a, 10 days before inoculation

Row | SMILES | Result (control effect)
17 | O=C1CCc2cccc3c2N1CC3 [Pyroquilon (b), pyroquilon] | B (a control value of 20 or more was evaluated as B (control effect was observed))
18 | Cc1ccc(C(=O)NC[C@@H](NC(=O)OCC(F)(F)F)C(C)C)cc1 [Tolprocarb (a), tolprocarb] | B (a control value of 20 or more was evaluated as B (control effect was observed))
19 | Cc1cccc2sc3nncn3c12 [Tricyclazole (c), tricyclazole] | A (a control value of 50 or more was evaluated as A (high control effect was observed))

Same assay, conditions: 250 g ai/10a, 10 days before inoculation

Row | SMILES | Result (control effect)
20 | C=CCOC1=NS(=O)(=O)c2ccccc21 [Probenazole (h), probenazole] | C (A control value of less than 20 was evaluated as C (low control effect or no control effect))

The compounds below were run on soft rot bacteria (Erwinia carotovora subsp. carotovora) (assay: Control test on Chinese cabbage soft rot (spray test)). Conditions: 50 ppm, inoculated 3 days after spraying.

Row | SMILES | Result (control effect)
21 | O=C1CCc2cccc3c2N1CC3 [Pyroquilon (b), pyroquilon] | B (a control value of 20 or more was evaluated as B (control effect is observed))
22 | Cc1ccc(C(=O)NC[C@@H](NC(=O)OCC(F)(F)F)C(C)C)cc1 [Tolprocarb (a), tolprocarb] | B (a control value of 20 or more was evaluated as B (control effect is observed))
23 | O=C1OCc2c(Cl)c(Cl)c(Cl)c(Cl)c21 [Fthalide (d), fthalide] | B (a control value of 20 or more was evaluated as B (control effect is observed))
24 | CCC1(C(=O)N[C@H](C)c2ccc(Cl)cc2)C(C)C1(Cl)Cl (stereo partly drawn) [Carpropamide (e), carpropamid] | C (a control value less than 20 was evaluated as C (low control effect or no control effect))
25 | Cc1cccc2sc3nncn3c12 [Tricyclazole (c), tricyclazole] | A (a control value of 50 or more was evaluated as A (high control effect is observed))
26 | C[C@@H](NC(=O)C(C#N)C(C)(C)C)c1ccc(Cl)cc1Cl (stereo partly drawn) [Diclosimette (f), diclocymet] | C (a control value less than 20 was evaluated as C (low control effect or no control effect))
27 | CC(Oc1ccc(Cl)cc1Cl)C(=O)NC(C)(C#N)C(C)C (stereo not drawn) [Fenoxanil (g), fenoxanil] | C (a control value less than 20 was evaluated as C (low control effect or no control effect))

Same assay, conditions: 250 ppm, inoculated 3 days after spraying

Row | SMILES | Result (control effect)
28 | C=CCOC1=NS(=O)(=O)c2ccccc21 [Probenazole (h), probenazole] | C (a control value less than 20 was evaluated as C (low control effect or no control effect))

What follows are compounds tested on soft rot bacteria (Erwinia carotovora subsp. carotovora) (assay: Control test on Chinese cabbage soft rot (soil drench test)). Conditions: 22.5 g ai/10a, 10 days before inoculation.

Row | SMILES | Result (control effect)
29 | O=C1CCc2cccc3c2N1CC3 [Pyroquilon (b), pyroquilon] | B (a control value of 20 or more was evaluated as B (control effect is observed))
30 | Cc1ccc(C(=O)NC[C@@H](NC(=O)OCC(F)(F)F)C(C)C)cc1 [Tolprocarb (a), tolprocarb] | B (a control value of 20 or more was evaluated as B (control effect is observed))
31 | CCC1(C(=O)N[C@H](C)c2ccc(Cl)cc2)C(C)C1(Cl)Cl (stereo partly drawn) [Carpropamide (e), carpropamid] | C (a control value less than 20 was evaluated as C (low control effect or no control effect))
32 | Cc1cccc2sc3nncn3c12 [Tricyclazole (c), tricyclazole] | C (a control value less than 20 was evaluated as C (low control effect or no control effect))
33 | C[C@@H](NC(=O)C(C#N)C(C)(C)C)c1ccc(Cl)cc1Cl (stereo partly drawn) [Diclosimette (f), diclocymet] | B (a control value of 20 or more was evaluated as B (control effect is observed))
34 | CC(Oc1ccc(Cl)cc1Cl)C(=O)NC(C)(C#N)C(C)C (stereo not drawn) [Fenoxanil (g), fenoxanil] | A (a control value of 50 or more was evaluated as A (high control effect was observed))

Same assay, conditions: 45 g ai/10a, 10 days before inoculation

Row | SMILES | Result (control effect)
35 | O=C1CCc2cccc3c2N1CC3 [Pyroquilon (b), pyroquilon] | A (a control value of 50 or more was evaluated as A (high control effect was observed))
36 | Cc1ccc(C(=O)NC[C@@H](NC(=O)OCC(F)(F)F)C(C)C)cc1 [Tolprocarb (a), tolprocarb] | B (a control value of 20 or more was evaluated as B (control effect is observed))
37 | CCC1(C(=O)N[C@H](C)c2ccc(Cl)cc2)C(C)C1(Cl)Cl (stereo partly drawn) [Carpropamide (e), carpropamid] | B (a control value of 20 or more was evaluated as B (control effect is observed))
38 | Cc1cccc2sc3nncn3c12 [Tricyclazole (c), tricyclazole] | B (a control value of 20 or more was evaluated as B (control effect is observed))
39 | C[C@@H](NC(=O)C(C#N)C(C)(C)C)c1ccc(Cl)cc1Cl (stereo partly drawn) [Diclosimette (f), diclocymet] | B (a control value of 20 or more was evaluated as B (control effect is observed))
40 | CC(Oc1ccc(Cl)cc1Cl)C(=O)NC(C)(C#N)C(C)C (stereo not drawn) [Fenoxanil (g), fenoxanil] | B (a control value of 20 or more was evaluated as B (control effect is observed))

Same assay, conditions: 250 g ai/10a, 10 days before inoculation

Row | SMILES | Result (control effect)
41 | C=CCOC1=NS(=O)(=O)c2ccccc21 [Probenazole (h), probenazole] | B (a control value of 20 or more was evaluated as B (control effect is observed))

Each compound was assayed on cucumber leaf spot bacteria (Pseudomonas syringae pv. lachrymans) (assay: Control test on cucumber leaf spot bacterial diseases (spray test)). Conditions: 50 ppm, inoculated 3 days after treatment.

Row | SMILES | Result (control effect)
42 | O=C1CCc2cccc3c2N1CC3 [Pyroquilon (b), pyroquilon] | A (a control value of 50 or more was evaluated as A (high control effect is observed))
43 | Cc1ccc(C(=O)NC[C@@H](NC(=O)OCC(F)(F)F)C(C)C)cc1 [Tolprocarb (a), tolprocarb] | A (a control value of 50 or more was evaluated as A (high control effect is observed))
44 | O=C1OCc2c(Cl)c(Cl)c(Cl)c(Cl)c21 [Fthalide (d), fthalide] | A (a control value of 50 or more was evaluated as A (high control effect is observed))
45 | Cc1cccc2sc3nncn3c12 [Tricyclazole (c), tricyclazole] | A (a control value of 50 or more was evaluated as A (high control effect is observed))

Same assay, conditions: 250 ppm, inoculated 3 days after treatment

Row | SMILES | Result (control effect)
46 | O=C1CCc2cccc3c2N1CC3 [Pyroquilon (b), pyroquilon] | A (a control value of 50 or more was evaluated as A (high control effect is observed))
47 | C=CCOC1=NS(=O)(=O)c2ccccc21 [Probenazole (h), probenazole] | A (a control value of 50 or more was evaluated as A (high control effect is observed))
48 | Cc1ccc(C(=O)NC[C@@H](NC(=O)OCC(F)(F)F)C(C)C)cc1 [Tolprocarb (a), tolprocarb] | A (a control value of 50 or more was evaluated as A (high control effect is observed))
49 | O=C1OCc2c(Cl)c(Cl)c(Cl)c(Cl)c21 [Fthalide (d), fthalide] | A (a control value of 50 or more was evaluated as A (high control effect is observed))
50 | CCC1(C(=O)N[C@H](C)c2ccc(Cl)cc2)C(C)C1(Cl)Cl (stereo partly drawn) [Carpropamide (e), carpropamid] | A (a control value of 50 or more was evaluated as A (high control effect is observed))
51 | Cc1cccc2sc3nncn3c12 [Tricyclazole (c), tricyclazole] | A (a control value of 50 or more was evaluated as A (high control effect is observed))
52 | C[C@@H](NC(=O)C(C#N)C(C)(C)C)c1ccc(Cl)cc1Cl (stereo partly drawn) [Diclosimette (f), diclocymet] | A (a control value of 50 or more was evaluated as A (high control effect is observed))
53 | CC(Oc1ccc(Cl)cc1Cl)C(=O)NC(C)(C#N)C(C)C (stereo not drawn) [Fenoxanil (g), fenoxanil] | A (a control value of 50 or more was evaluated as A (high control effect is observed))

The compounds below were run on cucumber leaf spot bacteria (Pseudomonas syringae pv. lachrymans) (assay: Control test on cucumber leaf spot bacterial diseases (soil drench test)). Conditions: 180 g ai/10a, 10 days before inoculation.

Row | SMILES | Result (control effect)
54 | O=C1CCc2cccc3c2N1CC3 [Pyroquilon (b), pyroquilon] | A (a control value of 50 or more was evaluated as A (high control effect was observed))
55 | Cc1ccc(C(=O)NC[C@@H](NC(=O)OCC(F)(F)F)C(C)C)cc1 [Tolprocarb (a), tolprocarb] | B (a control value of 20 or more was evaluated as B (control effect was observed))
56 | Cc1cccc2sc3nncn3c12 [Tricyclazole (c), tricyclazole] | A (a control value of 50 or more was evaluated as A (high control effect was observed))

Same assay, conditions: 250 g ai/10a, 10 days before inoculation

Row | SMILES | Result (control effect)
57 | C=CCOC1=NS(=O)(=O)c2ccccc21 [Probenazole (h), probenazole] | A (a control value of 50 or more was evaluated as A (high control effect was observed))
